For experiment [1], the target named is T1, human CREB-binding protein (CBP) (human, UniProt Q92793).
T1 construct: also called huCBP; native CBP
The experiment in a line: co-immunoprecipitation from HeLa or 293 cells.

For another experiment, the target named is T2, human p300 (human, UniProt Q09472).
T2 construct: also called hup300
As to the kind of experiment: co-immunoprecipitation from HeLa or 293 cells.

B1: Ku80 (other, human, UniProt P13010 2-732, looked up)
chain: VRSGNKAAVVLCMDVGFTMSNSIPGIESPFEQAKKVITMFVQRQVFAENKDEIALVLFGTDGTDNPLSGGDQYQNITVHRHLMLPDFDLLEDIESKIQPGSQQADFLDALIVSMDVIQHETIGKKFEKRHIEIFTDLSSRFSKSQLDIIIHSLKKCDISLQFFLPFSLGKEDGSGDRGDGPFRLGGHGPSFPLKGITEQQKEGLEIVKMVMISLEGEDGLDEIYSFSESLRKLCVFKKIERHSIHWPCRLTIGSNLSIRIAAYKSILQERVKKTWTVVDAKTLKKEDIQKETVYCLNDDDETEVLKEDIIQGFRYGSDIVPFSKVDEEQMKYKSEGKCFSVLGFCKSSQVQRRFFMGNQVLKVFAARDDEAAAVALSSLIHALDDLDMVAIVRYAYDKRANPQVGVAFPHIKHNYECLVYVQLPFMEDLRQYMFSSLKNSKKYAPTEAQLNAVDALIDSMSLAKKDEKTDTLEDLFPTTKIPNPRFQRLFQCLLHRALHPREPLPPIQQHIWNMLNPPAEVTTKSQIPLSKIKTLFPLIEAKKKDQVTAQEIFQDNHEDGPTAKKLKTEQGGAHFSVSSLAEGSVTSVGSVNPAENFRVLVKQKKASFEEASNQLINHIEQFLDTNETPYFMKSIDCIRAFREEAIKFSEEQRFNNFLKALQEKVEIKQLNHFWEIVVQDGITLITKEEASGSSVTAEEAKKFLAPKDKPSGDTAAVFEEGGDVDDLLDMI
notes: Endogenous Ku80
On to B1, for which the binding result in experiment [1] is “no binding”.

B2: human Ku70 (wild-type, full-length) (other)
chain: MSGWESYYKTEGDEEAEEEQEENLEASGDYKYSGRDSLIFLVDASKAMFESQSEDELTPFDMSIQCIQSVYISKIISSDRDLLAVVFYGTEKDKNSVNFKNIYVLQELDNPGAKRILELDQFKGQQGQKRFQDMMGHGSDYSLSEVLWVCANLFSDVQFKMSHKRIMLFTNEDNPHGNDSAKASRARTKAGDLRDTGIFLDLMHLKKPGGFDISLFYRDIISIAEDEDLRVHFEESSKLEDLLRKVRAKETRKRALSRLKLKLNKDIVISVGIYNLVQKALKPPPIKLYRETNEPVKTKTRTFNTSTGGLLLPSDTKRSQIYGSRQIILEKEETEELKRFDDPGLMLMGFKPLVLLKKHHYLRPSLFVYPEESLVIGSSTLFSALLIKCLEKEVAALCRYTPRRNIPPYFVALVPQEEELDDQKIQVTPPGFQLVFLPFADDKRKMPFTEKIMATPEQVGKMKAIVEKLRFTYRSDSFENPVLQQHFRNLEALALDLMEPEQAVDLTLPKVEAMNKRLGSLVDEFKELVYPPDYNPEGKVTKRKHDNEGSGSKRPKVEYSEEELKTHISKGTLGKFTVPMLKEACRAYGLKSGLKKQELLEALTKHFQD
notes: also called huKu70; native Ku70
On to B2, for which the binding result with human p300 is on record as “no binding”.

Values taken from US20060084085A1 (published 2006).
